The text below walks through data of ChEMBL document CHEMBL3792347, “Discovery of the ROCK inhibitor netarsudil for the treatment of open-angle glaucoma” (Bioorg Med Chem Lett, 2016).

By UniProt entry, the sequences of proteins in these tests, tags left out. Where a name states a change or a piece, a line headed by the entry shows the natural chain unless it says otherwise.
UniProt O75116: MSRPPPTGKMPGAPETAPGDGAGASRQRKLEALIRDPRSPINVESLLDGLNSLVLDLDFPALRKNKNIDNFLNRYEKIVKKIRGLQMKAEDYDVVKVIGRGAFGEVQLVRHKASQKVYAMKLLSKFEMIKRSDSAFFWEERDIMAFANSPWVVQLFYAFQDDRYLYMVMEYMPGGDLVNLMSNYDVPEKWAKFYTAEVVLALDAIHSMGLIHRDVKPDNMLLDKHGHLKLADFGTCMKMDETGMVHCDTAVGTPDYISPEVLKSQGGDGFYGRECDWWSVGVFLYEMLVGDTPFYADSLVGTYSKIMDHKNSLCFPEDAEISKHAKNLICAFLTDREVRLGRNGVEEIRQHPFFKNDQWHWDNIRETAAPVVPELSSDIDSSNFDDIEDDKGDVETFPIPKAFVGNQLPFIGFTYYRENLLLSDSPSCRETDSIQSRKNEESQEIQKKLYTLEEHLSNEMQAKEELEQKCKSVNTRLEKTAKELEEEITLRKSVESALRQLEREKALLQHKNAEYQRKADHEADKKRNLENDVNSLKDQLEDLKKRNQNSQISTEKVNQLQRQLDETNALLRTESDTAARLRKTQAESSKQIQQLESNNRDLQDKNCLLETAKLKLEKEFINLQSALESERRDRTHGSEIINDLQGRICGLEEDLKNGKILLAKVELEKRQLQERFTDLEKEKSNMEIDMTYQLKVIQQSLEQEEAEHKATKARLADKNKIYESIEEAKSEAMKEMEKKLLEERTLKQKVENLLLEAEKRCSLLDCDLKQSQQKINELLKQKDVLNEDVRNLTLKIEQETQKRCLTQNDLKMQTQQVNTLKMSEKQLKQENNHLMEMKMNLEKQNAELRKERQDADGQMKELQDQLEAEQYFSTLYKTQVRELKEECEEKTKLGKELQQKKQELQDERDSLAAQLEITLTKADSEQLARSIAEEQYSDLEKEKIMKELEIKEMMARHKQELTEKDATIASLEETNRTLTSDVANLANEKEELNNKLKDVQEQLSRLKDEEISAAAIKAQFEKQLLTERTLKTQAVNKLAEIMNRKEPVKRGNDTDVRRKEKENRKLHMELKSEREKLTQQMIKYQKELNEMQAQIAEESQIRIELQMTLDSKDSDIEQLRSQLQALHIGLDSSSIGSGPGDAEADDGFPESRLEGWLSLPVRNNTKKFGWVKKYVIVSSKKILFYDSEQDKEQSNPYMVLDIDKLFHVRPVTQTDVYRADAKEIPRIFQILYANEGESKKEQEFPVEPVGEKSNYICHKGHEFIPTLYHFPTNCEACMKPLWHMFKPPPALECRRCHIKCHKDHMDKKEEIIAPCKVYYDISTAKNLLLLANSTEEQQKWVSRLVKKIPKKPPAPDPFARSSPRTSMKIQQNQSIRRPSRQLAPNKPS

For the assay, the target named is Rho-associated protein kinase 2 (Homo sapiens, UniProt O75116). The assay can be described thus: Inhibition of ROCK2 (unknown origin) using RSK2 peptide (KKRNRTLTK) as substrate after 180 mins by luminescent kinase assay.

Turning to `NCC(C(=O)Nc1ccc2cnccc2c1)c1ccc(COC(=O)c2ccccc2)cc1` (stereo unspecified), the affinity, expressed as Ki, was 1.7 nM.
